The values that follow are results of earlier work, collected in US20050112093A1, “Combination therapy for HCV infection” (priority 2003, published 2005).

The subject of one data set is HCV. The settings on record: phase III study, 1,149 treatment naïve patients, 48-week treatment course; PEG-IFN-α2a 180 μg.
The conditions of data set [1]: in vivo.

With “PEG-IFN-α2a: peginterferon alfa-2a, incorporates 40 kDa PEG molecules; Roche Laboratories”, the SVR in the data set with HCV is given as 30%. Further, the serum half-life result in data set [1] was “approximately 80 hours”. In the case of “PEG-IFN-α2b: peginterferon alfa-2b, incorporates 12 kDa PEG molecules; Schering Plough Corporation”, in data set [1], the serum half-life result was “approximately 31 hours”.
